Reference: patent US5010106A, “Method of sterilizing anthers of plants” (dated 1991)

Key:
[1] = test system: millet of Mironovskoye 94 variety; assay: Chemical sterilization of anthers, field test, millet (isolated panicles / open pollination); conditions: Table 9, millet Mironovskoye 94, V-th stage, 1% aqueous emulsion, 10 kg/ha; for Number of grains in panicle under isolator: control 124.9; for Number of grains in panicle in open pollination: control 145.4; for Percentage of grain setting in open pollination: control = 100%
[2] = test system: spring wheat of Botanicheskaya 4 variety; assay: Chemical sterilization of anthers, field test, spring wheat (isolated ears / open pollination); conditions: Table 3, spring wheat Botanicheskaya 4, V-th stage, 1% aqueous emulsion, 6 kg/ha; for Number of grains in ear under isolator: control 28.9; for Number of grains in ear in open pollination: control 30.9; for Percentage of grain setting in open pollination: control = 100%
[3] = test system: spring wheat of Moskovskaya 35 variety; assay: as above; conditions: Table 2, spring wheat Moskovskaya 35, VI-th stage, 1% aqueous emulsion, 8 kg/ha; for Number of grains in ear under isolator: control 29.4; for Number of grains in ear in open pollination: control 31.2; for Percentage of grain setting in open pollination: control = 100%
[4] = test system: diploid rye of Chulpan variety; assay: Chemical sterilization of anthers, field test, diploid rye (isolated ears / open pollination); conditions: Table 4, VI-th stage, 1.0% aqueous emulsion, 10 kg/ha; for Number of grains in ear under isolator: control 44.1; for Number of grains in ear in open pollination: control 49.6; for Percentage of grain setting in open pollination: control = 100%
[5] = test system: winter wheat of Mironovskaya 808 variety; assay: Chemical sterilization of anthers, field test, winter wheat (isolated ears / open pollination); conditions: Table 1, winter wheat Mironovskaya 808, V-th stage, 2% aqueous emulsion, 12 kg/ha; for Number of grains in ear under isolator: control 40.6; for Number of grains in ear in open pollination: control 42.6; for Percentage of setting of seeds in open pollination: control = 100%
[6] = test system: sunflower of Peredovik variety; assay: Chemical sterilization of sunflower pollen; conditions: Table 13, V-th stage, 0.2% aqueous emulsion, 1.2 kg/ha
sunflower of BK-119 line = assay: Chemical sterilization of sunflower pollen; conditions: Table 13, V-th stage, 0.2% aqueous emulsion, 1.2 kg/ha
[7] = test system: tetraploid rye of Ukrainskaya tetra variety; assay: Chemical sterilization of anthers, field test, tetraploid rye (isolated ears / open pollination); conditions: Table 5, 1% aqueous emulsion, 8 kg/ha

Row | Structure (SMILES) | Sterility percentage [1] | Number of grains in panicle under isolator [1] | Number of grains in panicle in open pollination [1] | Percentage of grain setting in open pollination [1] | Percentage of sterility [2] | Number of grains in ear under isolator [2] | Number of grains in ear in open pollination [2] | Percentage of grain setting in open pollination [2] | Sterility percentage [3] | Number of grains in ear under isolator [3] | Number of grains in ear in open pollination [3] | Percentage of grain setting in open pollination [3] | Sterility percentage [4] | Number of grains in ear under isolator [4] | Number of grains in ear in open pollination [4] | Percentage of grain setting in open pollination [4] | Sterility percentage [5] | Number of grains in ear under isolator [5] | Number of grains in ear in open pollination [5] | Percentage of setting of seeds in open pollination [5] | further results
1 | CC1=CCC(=C(C)C)CC1 | 100.0% | 0.0 | 137.3 | 89.6% | 100.0% | 0.0 | 29.5 | 95.5% | 100.0% | 0.0 | 28.1 | 90.1% | 97.8% | 0.8 | 47.8 | 96.4% | 98.5% | 0.6 | 40.2 | 94.4% | –
2 | C=C(C)C1CC=C(C)CC1 (stereo not drawn) | 100.0% | 0.0 | 109.3 | 71.1% | 97.2% | 0.8 | 27.3 | 88.3% | 97.3% | 0.8 | 30.0 | 96.2% | 99.2% | 0.3 | 43.2 | 87.1% | 90.7% | 3.8 | 41.8 | 98.1% | –
3 | CC1=CCC(C(C)(C)O)CC1 (stereo not drawn) | 100.0% | 0.0 | – | – | 100.0% | 0.0 | 28.4 | 91.9% | 100.0% | 0.0 | 27.2 | 87.2% | – | – | – | – | 100.0% | 0.0 | 40.1 | 94.1% | Number of sterile plants ([6]; control 0.0): 100.0%; Oil content of achenes ([6]; control 54.7): 53.4%; Mass of 1,000 achenes ([6]; control 84.0): 82.3 g; Percentage of setting in open pollination ([6]; control 85.0): 80.0%; Percentage of setting of achenes pollination with the pollen mixture under isolator ([6]; control 85.0): 0.0%; Germination rate of achenes ([6]; control 100.0): 100.0%; Number of sterile plants (sunflower of BK-119 line; control 0.0): 100.0%; Oil content of achenes (sunflower of BK-119 line; control 51.0): 49.4%; Mass of 1,000 achenes (sunflower of BK-119 line; control 60.0): 55.4 g; Percentage of setting of achenes pollination with the pollen mixture under isolator (sunflower of BK-119 line; control 72.6): 0.0%; Percentage of setting in open pollination (sunflower of BK-119 line; control 85.0): 80.4%; Germination rate of achenes (sunflower of BK-119 line; control 100.0): 100.0%; Sterility percentage [7]: 98.6%; Number of grains in ear under isolator ([7]; control 28.0 (Examples 24, 25), 36.1 (Examples 26, 27)): 0.4; Number of grains in ear in open pollination ([7]; control 36.8 (Examples 24, 25), 40.2 (Examples 26, 27)): 33.8; Percentage of grain setting in open pollination ([7]; control = 100%): 91.8%
4 | Cc1ccc(C(C)C)cc1 | 100.0% | 0.0 | 107.3 | 70.0% | 95.9% | 1.2 | 30.1 | 97.4% | 95.9% | 1.2 | 27.3 | 87.5% | 100.0% | 0.0 | 47.4 | 95.6% | 98.3% | 0.7 | 39.9 | 93.7% | –
